Laboratory results published in patent publication US11241502B2, “Stable compositions of pegylated carfilzomib compounds” (AMGEN INC., priority 2017, dated 2022).

Test: reverse phase assay of main API peak (integrity of the molecule)
Format: physicochemical
Conditions: A5Su formulation, API at 20 mg/mL
Description: In order to identify stable formulations of PEG-CFZ, various formulations were made wherein the desired pegylated carfilzomib compound (API) was dissolve in experimental compositions of excipients, and the stability and quantity of the intact, non-degraded API was monitored and measured in the frozen state (−20° C. or below). Formulations of API was also prepared and tested to determine the ability of each exemplary formulation to provide adequate stability in the liquid state to be suitable for clinical and commercial administration. Here, these formulations were stored at least 8 hours at room temperature and 2 days at a temperatures ranging from 2-8° C. All formulations that were tested contained desired API compounds at 1 mg/mL concentrations.
For each formulation, the stability of the API was tested using three observable and/or measurable characteristics, as follows: • 1. Integrity of the molecule, as assessed by the reverse phase assay; • 2. Clarity of the solution, via visual assessment; and • 3. Concentration of the API material in the solution, as assessed by material recovery after centrifugation Results
FIG. 2 illustrates results of similar measurements taken with the same formulations prepared with exemplary pegylated carfilzomib compound no. 39 instead of example 26. API material recovery is similarly shown in red and percent main API peak at To and T3, as measured by the same reverse phase assay, after storage at 25° C. for 3 days, is shown. […]
The percent recovery of the exemplary pegylated carfilomib compounds were measured as a function of reverse phase assays for the peak(s) representing the active molecule/compound. The percent was determined based on the area under the curve, as described below. The reverse phase assays were conducted as follows—CFZ samples were analyzed by reverse phase using a Phenomenex Gemini C18, 50×4.6 mm, 3 micron particle size column with a 47 minute HPLC method. […] Main peak percentage was determined by taking Area Under the Curve integration. […]

4-(4-Acetoxy-3-((1-PEG3K-1H-1,2,3-triazol-4-yl)methoxy)benzyl)-4-((4S,7S,10S,13S)-10-benzyl-7-isobutyl-15-methyl-13-((R)-2-methyloxirane-2-carbonyl)-2,5,8,11-tetraoxo-4-phenethyl-3,6,9,12-tetraazahexadecyl)morpholin-4-ium Chloride [Example 34]
main API peak loss, 4° C. Loss per 1 week (storage at 4° C.): 0.0
main API peak loss, 25° C. loss per 8 hr (storage at 25° C.): 0.0
main API peak loss, −70° C. loss per 2 weeks (storage at −70° C.): 0.4
